# Reference: US11186582B2, “Substituted [1,2,4]triazolo[1,5-a]pyrimidin-7-yl compounds as PDE2 inhibitors” (DART NEUROSCIENCE (CAYMAN) LTD., priority 2014, dated 2021)
# By UniProt entry, the sequences of proteins in these tests, tags left out. Residues count along the entry.
# UniProt O00408, 2-941: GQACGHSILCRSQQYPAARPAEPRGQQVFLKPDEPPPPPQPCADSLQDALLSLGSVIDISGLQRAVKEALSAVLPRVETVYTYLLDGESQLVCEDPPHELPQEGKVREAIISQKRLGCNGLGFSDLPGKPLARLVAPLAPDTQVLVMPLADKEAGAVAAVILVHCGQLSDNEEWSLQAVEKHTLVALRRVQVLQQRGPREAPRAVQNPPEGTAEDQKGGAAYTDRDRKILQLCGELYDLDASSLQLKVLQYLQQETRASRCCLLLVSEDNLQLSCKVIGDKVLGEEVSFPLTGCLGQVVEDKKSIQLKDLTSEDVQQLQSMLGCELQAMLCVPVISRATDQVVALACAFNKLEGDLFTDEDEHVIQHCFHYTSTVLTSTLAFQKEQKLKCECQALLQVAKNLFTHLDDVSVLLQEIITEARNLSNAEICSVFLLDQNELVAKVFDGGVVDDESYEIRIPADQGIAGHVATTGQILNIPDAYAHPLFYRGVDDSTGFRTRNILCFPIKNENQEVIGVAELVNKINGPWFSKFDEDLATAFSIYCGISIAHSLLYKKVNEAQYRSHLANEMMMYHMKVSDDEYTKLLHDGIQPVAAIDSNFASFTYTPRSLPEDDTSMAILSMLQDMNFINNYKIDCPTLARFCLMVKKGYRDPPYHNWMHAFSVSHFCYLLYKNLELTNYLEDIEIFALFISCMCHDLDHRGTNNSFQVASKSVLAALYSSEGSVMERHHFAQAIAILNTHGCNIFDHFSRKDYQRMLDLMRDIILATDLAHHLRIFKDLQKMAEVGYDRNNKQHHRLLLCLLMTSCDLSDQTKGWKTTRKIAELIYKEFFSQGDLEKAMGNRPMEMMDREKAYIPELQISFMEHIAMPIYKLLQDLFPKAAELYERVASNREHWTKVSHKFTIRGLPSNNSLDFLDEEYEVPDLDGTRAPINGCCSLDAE
# Target: FLAG-tagged PDE2A1 (amino acids 2-941) (Homo sapiens (Human), UniProt O00408)
# Test: IMAP TR-FRET PDE2A phosphodiesterase enzymatic assay
# Conditions: not given
row,SMILES,IC50 [µM]
1,"Cc1cc(C2CCCN(C(=O)c3c(F)cccc3Cl)C2)n2ncnc2n1 (centres unmarked) [Example 495, 1-[(2-Chloro-6-fluorophenyl)carbonyl]-3-{5-methyl-[1,2,4]triazolo[1,5-a]pyrimidin-7-yl}piperidine]",> 10
2,"COc1cccc(F)c1C(=O)N1CCCC(c2cc(C)nc3ncnn23)C1 (centres unmarked) [Example 496, 1-[(2-Fluoro-6-methoxyphenyl)carbonyl]-3-{5-methyl-[1,2,4]triazolo[1,5-a]pyrimidin-7-yl}piperidine]",1 to 10
3,"Cc1cc(C2CCCN(C(=O)c3c(C)cccc3Cl)C2)n2ncnc2n1 (centres unmarked) [Example 497, 1-[(2-Chloro-6-methylphenyl)carbonyl]-3-{5-methyl-[1,2,4]triazolo[1,5-a]pyrimidin-7-yl}piperidine]",> 10
4,"COc1ccc(C(=O)N2CC(c3cc(C)nc4ncnn34)CC(F)(F)C2)c(C)c1 (centres unmarked) [Example 500, 3,3-Difluoro-1-(4-methoxy-2-methylbenzoyl)-5-{5-methyl-[1,2,4]triazolo[1,5-a]pyrimidin-7-yl}piperidine]",0.1 to 1
5,"COc1cc(C)ccc1C(=O)N1CC(c2cc(C)nc3ncnn23)CC(F)(F)C1 (centres unmarked) [Example 506, 3,3-Difluoro-1-(2-methoxy-4-methylbenzoyl)-5-{5-methyl-[1,2,4]triazolo[1,5-a]pyrimidin-7-yl}piperidine]",0.1 to 1
6,"Cc1cc(C2CN(C(=O)c3ccc(C(F)F)cc3)CC(F)(F)C2)n2ncnc2n1 (centres unmarked) [Example 512, 1-[4-(Difluoromethyl)benzoyl]-3,3-difluoro-5-{5-methyl-[1,2,4]triazolo[1,5-a]pyrimidin-7-yl}piperidine]",0.1 to 1

# Same assay, conditions: IMAP TR-FRET, 200 nM FAM-cAMP substrate, 11-point half-log dose-response
row,SMILES,PDE2 (pIC50)
1,"Cc1cc(C2CN(C(=O)c3cc4ccccc4n3C)CC(F)(F)C2)n2ncnc2n1 (centres unmarked) [Example 498, 2-(3,3-Difluoro-5-{5-methyl-[1,2,4]triazolo[1,5-a]pyrimidin-7-yl}piperidine-1-carbonyl)-1-methyl-1H-indole]",>7
2,"Cc1cc(C2CN(C(=O)c3ccc4occc4c3)CC(F)(F)C2)n2ncnc2n1 (centres unmarked) [Example 499, 1-(1-Benzofuran-5-carbonyl)-3,3-difluoro-5-{5-methyl-[1,2,4]triazolo[1,5-a]pyrimidin-7-yl}piperidine]",>7
3,"Cc1cc(C2CN(C(=O)c3ccc4c(c3)CCCC4)CC(F)(F)C2)n2ncnc2n1 (centres unmarked) [Example 501, 3,3-Difluoro-5-{5-methyl-[1,2,4]triazolo[1,5-a]pyrimidin-7-yl}-1-(5,6,7,8-tetrahydronaphthalene-2-carbonyl)piperidine]",>7
4,"Cc1cc(C2CN(C(=O)c3cn(C)c4ccccc34)CC(F)(F)C2)n2ncnc2n1 (centres unmarked) [Example 502, 3-(3,3-Difluoro-5-{5-methyl-[1,2,4]triazolo[1,5-a]pyrimidin-7-yl}piperidine-1-carbonyl)-1-methyl-1H-indole]",>7
5,"Cc1cc(C2CN(C(=O)c3ccc4sccc4c3)CC(F)(F)C2)n2ncnc2n1 (centres unmarked) [Example 503, 1-(1-Benzothiophene-5-carbonyl)-3,3-difluoro-5-{5-methyl-[1,2,4]triazolo[1,5-a]pyrimidin-7-yl}piperidine]",>7
6,"Cc1cc(C2CN(C(=O)c3cc(F)cc(Cl)c3)CC(F)(F)C2)n2ncnc2n1 (centres unmarked) [Example 504, 1-(3-Chloro-5-fluorobenzoyl)-3,3-difluoro-5-{5-methyl-[1,2,4]triazolo[1,5-a]pyrimidin-7-yl}piperidine]",>7
7,"Cc1cc(C2CN(C(=O)c3ccc(-c4ccccc4)cc3)CC(F)(F)C2)n2ncnc2n1 (centres unmarked) [Example 505, 3,3-Difluoro-5-{5-methyl-[1,2,4]triazolo[1,5-a]pyrimidin-7-yl}-1-(4-phenylbenzoyl)piperidine]",>7
8,"Cc1cc(C2CN(C(=O)c3ccc4nccn4c3)CC(F)(F)C2)n2ncnc2n1 (centres unmarked) [Example 507, 3,3-Difluoro-1-{imidazo[1,2-a]pyridine-6-carbonyl}-5-{5-methyl-[1,2,4]triazolo[1,5-a]pyrimidin-7-yl}piperidine]",>7
9,"Cc1cc(C2CN(C(=O)c3cnc4ccccc4n3)CC(F)(F)C2)n2ncnc2n1 (centres unmarked) [Example 508, 2-(3,3-Difluoro-5-{5-methyl-[1,2,4]triazolo[1,5-a]pyrimidin-7-yl}piperidine-1-carbonyl)quinoxaline]",>7
10,"Cc1cc(C2CN(C(=O)c3cn4ccccc4n3)CC(F)(F)C2)n2ncnc2n1 (centres unmarked) [Example 509, 3,3-Difluoro-1-{imidazo[1,2-a]pyridine-2-carbonyl}-5-{5-methyl-[1,2,4]triazolo[1,5-a]pyrimidin-7-yl}piperidine]",>7
11,"Cc1cc(C2CN(C(=O)c3csc4ccccc34)CC(F)(F)C2)n2ncnc2n1 (centres unmarked) [Example 510, 1-(1-Benzonthiophene-3-carbonyl)3,3-difluoro-5-{5-methyl-[1,2,4]triazolo[1,5-a]pyrimidin-7-yl}piperidine]",>7
12,"COc1ccc(C)cc1C(=O)N1CC(c2cc(C)nc3ncnn23)CC(F)(F)C1 (centres unmarked) [Example 511, 3,3-Difluoro-1-(2-methoxy-5-methylbenzoyl)-5-{5-methyl-[1,2,4]triazolo[1,5-a]pyrimidin-7-yl}piperidine]",>7
13,"COc1ccc(C(=O)N2CC(c3cc(C)nc4ncnn34)CC(F)(F)C2)cc1OC (centres unmarked) [Example 513, 1-(3,4-Dimethoxybenzoyl)-3,3-difluoro-5-{5-methyl-[1,2,4]triazolo[1,5-a]pyrimidin-7-yl}piperidine]",>7
14,"Cc1cc(C2CN(C(=O)c3cc(Cl)ccc3F)CC(F)(F)C2)n2ncnc2n1 (centres unmarked) [Example 514, 1-(5-Chloro-2-fluorobenzoyl)-3,3-difluoro-5-{5-methyl-[1,2,4]triazolo[1,5-a]pyrimidin-7-yl}piperidine]",>7
15,"Cc1cc(C2CN(C(=O)c3ccc(F)c(C)c3)CC(F)(F)C2)n2ncnc2n1 (centres unmarked) [Example 515, 3,3-Difluoro-1-(4-fluoro-3-methylbenzoyl)-5-{5-methyl-[1,2,4]triazolo[1,5-a]pyrimidin-7-yl}piperidine]",>7
16,"COc1cccc(C(=O)N2CC(c3cc(C)nc4ncnn34)CC(F)(F)C2)c1 (centres unmarked) [Example 517, 3,3-Difluoro-1-(3-methoxybenzoyl)-5-{5-methyl-[1,2,4]triazolo[1,5-a]pyrimidin-7-yl}piperidine]",>7
17,"Cc1cc(C2CN(C(=O)c3ccc4c(c3)OCO4)CC(F)(F)C2)n2ncnc2n1 (centres unmarked) [Example 518, 1-(2H-1,3-Benzodioxole-5-carbonyl)-3,3-difluoro-5-{5-methyl-[1,2,4]triazolo[1,5-a]pyrimidin-7-yl}piperidine]",>7
18,"Cc1cc(C2CN(C(=O)c3ccc4c(c3)OCCO4)CC(F)(F)C2)n2ncnc2n1 (centres unmarked) [Example 519, 1-(2,3-Dihydro-1,4-benzodioxine-6-carbonyl)-3,3-difluoro-5-{5-methyl-[1,2,4]triazolo[1,5-a]pyrimidin-7-yl}piperidine]",>7
19,"COc1cc2ccccc2cc1C(=O)N1CC(c2cc(C)nc3ncnn23)CC(F)(F)C1 (centres unmarked) [Example 520, 3,3-Difluoro-1-(3-methoxynaphthalene-2-carbonyl)-5-{5-methyl-[1,2,4]triazolo[1,5-a]pyrimidin-7-yl}piperidine]",>7
20,"Cc1cc(C2CN(C(=O)c3ccc(C(C)C)cc3)CC(F)(F)C2)n2ncnc2n1 (centres unmarked) [Example 521, 3,3-Difluoro-5-{5-methyl-[1,2,4]triazolo[1,5-a]pyrimidin-7-yl}-1-[4-(propan-2-yl)benzoyl]piperidine]",>7
21,"Cc1ccc(F)c(C(=O)N2CC(c3cc(C)nc4ncnn34)CC(F)(F)C2)c1 (centres unmarked) [Example 522, 3,3-Difluoro-1-(2-fluoro-5-methylbenzoyl)-5-{5-methyl-[1,2,4]triazolo[1,5-a]pyrimidin-7-yl}piperidine]",>7
22,"COc1cc(F)cc(C(=O)N2CC(c3cc(C)nc4ncnn34)CC(F)(F)C2)c1 (centres unmarked) [Example 523, 3,3-Difluoro-1-(3-fluoro-5-methoxybenzoyl)-5-{5-methyl-[1,2,4]triazolo[1,5-a]pyrimidin-7-yl}piperidine]",>7
23,"Cc1cc(C2CN(C(=O)c3ccc4c(c3)CCC4)CC(F)(F)C2)n2ncnc2n1 (centres unmarked) [Example 524, 1-(2,3-Dihydro-1H-indene-5-carbonyl)-3,3-difluoro-5-{5-methyl-[1,2,4]triazolo[1,5-a]pyrimidin-7-yl}piperidine]",>7
24,"COc1c(C(=O)N2CC(c3cc(C)nc4ncnn34)CC(F)(F)C2)ccc2ccccc12 (centres unmarked) [Example 525, 3,3-Difluoro-1-(1-methoxynaphthalene-2-carbonyl)-5-{5-methyl-[1,2,4]triazolo[1,5-a]pyrimidin-7-yl}piperidine]",>7
25,"COc1ccc2cc(C(=O)N3CC(c4cc(C)nc5ncnn45)CC(F)(F)C3)ccc2c1 (centres unmarked) [Example 526, 3,3-Difluoro-1-(6-methoxynaphthalene-2-carbonyl)-5-{5-methyl-[1,2,4]triazolo[1,5-a]pyrimidin-7-yl}piperidine]",>7
26,"Cc1cc(C2CN(C(=O)c3cc(-c4ccccc4)nn3C)CC(F)(F)C2)n2ncnc2n1 (centres unmarked) [Example 527, 3,3-Difluoro-1-(1-methyl-3-phenyl-1H-pyrazole-5-carbonyl)-5-{5-methyl-[1,2,4]triazolo[1,5-a]pyrimidin-7-yl}piperidine]",>7
27,"Cc1cc(C2CN(C(=O)c3ccc4cc(F)ccc4c3)CC(F)(F)C2)n2ncnc2n1 (centres unmarked) [Example 528, 3,3-Difluoro-1-(6-fluoronaphthalene-2-carbonylyl)-5-{5-methyl-[1,2,4]triazolo[1,5-a]pyrimidin-7-yl}piperidine]",>7
28,"Cc1cc(C2CN(C(=O)c3nc4ccccc4s3)CC(F)(F)C2)n2ncnc2n1 (centres unmarked) [Example 529, 2-(3,3-Difluoro-5-{5-methyl-[1,2,4]triazolo[1,5-a]pyrimidin-7-yl}piperidine-1-carbonyl)-1,3-benzothiazole]",>7
29,"Cc1cc(C2CN(C(=O)c3ccc4c(c3)OC(F)(F)O4)CC(F)(F)C2)n2ncnc2n1 (centres unmarked) [Example 530, 1-(2,2-Difluoro-2H-1,3-benzodioxole-5-carbonyl)-3,3-difluoro-5-{5-methyl-[1,2,4]triazolo[1,5-a]pyrimidin-7-yl}piperidine]",>7
